Literature values, collected in US20170037086A1, “PEPTIDOMIMETIC MACROCYCLES WITH PTH ACTIVITY” (AILERON THERAPEUTICS, INC., priority 2014, published 2017).

Sequences of proteins named here, by UniProt entry; tags and fusion partners are left off. Residues count along the entry.
UniProt P49190, 25-550: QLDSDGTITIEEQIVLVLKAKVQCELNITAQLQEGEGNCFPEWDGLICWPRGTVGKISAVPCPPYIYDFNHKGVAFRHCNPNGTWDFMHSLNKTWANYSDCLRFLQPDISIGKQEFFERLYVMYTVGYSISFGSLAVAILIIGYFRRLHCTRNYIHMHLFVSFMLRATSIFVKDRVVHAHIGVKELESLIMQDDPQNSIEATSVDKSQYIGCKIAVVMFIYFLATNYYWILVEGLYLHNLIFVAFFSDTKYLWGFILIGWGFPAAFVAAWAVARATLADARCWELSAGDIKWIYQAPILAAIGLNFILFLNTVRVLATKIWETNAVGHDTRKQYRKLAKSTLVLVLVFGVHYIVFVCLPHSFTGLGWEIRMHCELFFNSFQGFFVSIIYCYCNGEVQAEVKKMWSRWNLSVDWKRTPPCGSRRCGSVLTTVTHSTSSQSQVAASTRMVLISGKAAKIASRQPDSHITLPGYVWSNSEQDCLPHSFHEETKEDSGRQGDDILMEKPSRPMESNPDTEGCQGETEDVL

Target: T1, PTH receptor type 2 (Homo sapiens, UniProt P49190)
T1 construct: expressed in transfected cells; host or cells: CHO-k1/PTH2R/Gα15
Details: reference value, cited from earlier work

Substance	IC50 (control antagonist)	EC50 (reference agonist)
PTHrP-7-34	1000 nM	–
TIP-39	–	2 nM
